Molecular target: LRRK2 (Homo sapiens (Human), UniProt Q5S007, G2019S)
Assay: In Vitro LRRK2 LabChip Assay (LRRK2 Ki)
Type: biochemical
Protocol: In Vitro LRRK2 LabChip Assay
This assay was used to determine a compound's potency in inhibiting activity of LRRK2 by determining, Kiapp, IC50, or percent inhibition values. In a polypropylene plate, LRRK2, fluorescently-labeled peptide substrate, ATP and test compound were incubated together. Using a LabChip 3000 (Caliper Life Sciences), after the reaction the substrate was separated by capillary electrophoresis into two populations: phosphorylated and unphosphorylated. The relative amounts of each were quantitated by fluorescence intensity. LRRK2 Ki was determined according to the equation: Y=V0*(1−((x+Ki*(1+S/Km)+Et)/(2*Et)−(((x+Ki*(1+S/Km)+Et)^2−(4*Et*x))^0.5)/(2*Et))). Ki values in Table 4 and elsewhere herein are shown in μM.
Assay conditions and materials used were as follows:
LRRK2 Wild type in 5 mM MgCl2: 15 nM (Invitrogen lot #500607F)
Kinase reaction time: 2 hours
Wild type in 5 mM MgCl2: 80 μM
Solid Support: Black 50 μL volume polypropylene 384 well plate (MatriCal cat #MP101-1-PP)
Kinase: LRRK2 G2019S (Invitrogen cat #PV4882). • LRRK2 Wild type (Invitrogen cat #PV4874).
Substrate: 5FAM-[…]-CONH2
Non-binding plate: 384 well clear V-bottom polypropylene plates (Greiner cat #781280).
ATP: 10 mM ATP (Cell Signaling cat #9804).
Coating Reagent #3: Coating Reagent #3 (Caliper). […]
The plate was incubated for 2 hours in the dark. […] Results were read on the LabChip 3000. […]

Amino acid sequences for entries named in this document (tags omitted). Residues count along the entry.
UniProt Q5S007, 970-2527 G2019S: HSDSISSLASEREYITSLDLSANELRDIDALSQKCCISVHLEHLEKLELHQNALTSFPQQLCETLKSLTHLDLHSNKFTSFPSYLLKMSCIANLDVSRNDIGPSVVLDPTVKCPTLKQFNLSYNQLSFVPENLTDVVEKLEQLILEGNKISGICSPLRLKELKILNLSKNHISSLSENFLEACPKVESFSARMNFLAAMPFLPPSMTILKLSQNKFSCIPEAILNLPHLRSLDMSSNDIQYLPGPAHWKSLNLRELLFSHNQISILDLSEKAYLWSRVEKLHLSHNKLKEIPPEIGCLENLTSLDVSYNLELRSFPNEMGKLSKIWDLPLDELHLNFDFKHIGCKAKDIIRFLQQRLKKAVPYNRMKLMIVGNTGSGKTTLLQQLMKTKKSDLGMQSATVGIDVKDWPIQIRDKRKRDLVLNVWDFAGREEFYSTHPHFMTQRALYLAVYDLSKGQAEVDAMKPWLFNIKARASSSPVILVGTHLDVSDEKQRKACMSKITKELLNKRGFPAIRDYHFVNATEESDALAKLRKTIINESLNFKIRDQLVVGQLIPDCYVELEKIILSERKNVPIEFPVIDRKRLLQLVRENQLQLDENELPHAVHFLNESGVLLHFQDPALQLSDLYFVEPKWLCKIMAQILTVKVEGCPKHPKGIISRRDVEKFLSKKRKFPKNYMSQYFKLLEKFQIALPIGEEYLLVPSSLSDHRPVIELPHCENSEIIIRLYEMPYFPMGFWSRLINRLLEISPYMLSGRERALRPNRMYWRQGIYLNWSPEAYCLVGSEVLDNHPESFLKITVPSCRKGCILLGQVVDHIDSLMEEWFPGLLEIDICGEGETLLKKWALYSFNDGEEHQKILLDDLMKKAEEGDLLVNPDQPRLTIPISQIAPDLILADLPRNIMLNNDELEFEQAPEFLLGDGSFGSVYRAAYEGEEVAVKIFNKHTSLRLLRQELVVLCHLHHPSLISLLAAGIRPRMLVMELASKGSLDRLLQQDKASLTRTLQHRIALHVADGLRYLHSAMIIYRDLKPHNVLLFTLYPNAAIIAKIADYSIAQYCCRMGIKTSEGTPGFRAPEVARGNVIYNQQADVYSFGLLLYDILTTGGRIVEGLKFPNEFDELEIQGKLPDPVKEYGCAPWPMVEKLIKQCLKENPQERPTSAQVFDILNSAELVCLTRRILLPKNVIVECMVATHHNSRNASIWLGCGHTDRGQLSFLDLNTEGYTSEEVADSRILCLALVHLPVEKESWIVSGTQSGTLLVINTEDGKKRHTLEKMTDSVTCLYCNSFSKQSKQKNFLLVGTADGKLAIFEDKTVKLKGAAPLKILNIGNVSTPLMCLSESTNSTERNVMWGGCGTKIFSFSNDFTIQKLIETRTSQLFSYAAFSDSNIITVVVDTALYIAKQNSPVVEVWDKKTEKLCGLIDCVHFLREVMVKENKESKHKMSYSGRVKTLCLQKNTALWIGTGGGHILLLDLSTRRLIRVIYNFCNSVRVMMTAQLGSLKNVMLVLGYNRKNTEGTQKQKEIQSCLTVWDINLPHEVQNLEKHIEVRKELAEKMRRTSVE

## CNc1nc(Nc2ccc(CN3CCOCC3)cc2OCCF)ncc1Cl [Example 14, 5-Chloro-N2-[2-(2-fluoro-ethoxy)-4-morpholin-4-ylmethyl-phenyl]-N4-methyl-pyrimidine-2,4-diamine]
  Ki: 9 nM

From patent US9145402B2, “Aminopyrimidine derivatives as LRRK2 modulators” (Genentech, Inc., priority 2011, dated 2015)
